# How the values were obtained:
# Conditions in all cases: mouse, in vivo
# [1] = system: Enterococci and Streptococci
# Lactobacillus = system: Lactobacillus
# anaerobes = system: anaerobes
# [2] = system: digestive commensal flora
# Enterobacteria = system: Enterobacteria
substance,measurement,setting,value
amoxicillin and clavulanic acid [AMC (Augmentin)],augmentation of Enterococci and Streptococci,[1],2 logs
same,Lactobacillus came back to a value of,Lactobacillus,6 logs
same,Lactobacillus decreased,Lactobacillus,7 logs
same,anaerobic bacteria,anaerobes,10^9 bacteria per gram per stool
same,effect on the digestive commensal flora in mice,[2],perturbed the flora
same,augmentation of Enterobacteria,Enterobacteria,~3 logs
same,decrease of Enterobacteria,Enterobacteria,1 log
